PglD inh: PglD (C. jejuni) enzyme inhibition. purified PglD enzyme, DTNB colorimetric CoA detection. inhibition, % at 12.5 µM. 0.098% of 360,000 active. AID 602405; in the data active = inhibition above about 16%, passing the limit was not always enough
ARNT TACC3 PPI: disruptors of human ARNT/TACC3 interaction. 0.66% of 390,000 active. AlphaScreen His-ARNT PAS-B/GST-TACC3 binding, luminescence; TACC3 fragment carries E629A point mutation. Q9Y6A5. inhibition, % at 9.99 µM. AID 623870;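 active = mean inhibition of replicates at least 50% and at least half of replicates each reaching 50%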;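 also: 0% = complete ARNT plus TACC3 wells and 100% = ARNT alone without TACC3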
PDI inh: inhibitors of human protein disulfide isomerase | P07237 | PDI insulin aggregation turbidity, A650, 90 min | inhibition, % at 10 µM | 0.052% of 350,000 active;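 active = mean inhibition across replicates of 30% or more, whatever share of single replicates reach that level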
ERp5 block: ERp5 (human) disulfide isomerase inhibition; 0.05% of 350,000 active; AID 651711; Q15084; ERp5 insulin aggregation, absorbance 650 nm, 90 min; inhibition, % at 9.99 µM;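 active = mean replicate inhibition above about 25%, with every replicate also reaching it, limit read from the data, passing the limit was not always enough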
FGF22 binding-1: FGF22 (human) thermal shift binding; recombinant FGF22 thermal shift, SYPRO orange fluorescence; percent of sucrose octasulfate shift, DMSO zero; 1.5% of 340,000 active; activity (Tm shift, normalised), % at 9.99 µM;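 active = mean Tm shift, scaled 0 neutral to 100 positive control, at about 1.3% or above, every replicate too, limit read from the data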
Yeast UUG start: alters start codon recognition fidelity in yeast | S. cerevisiae UUG-firefly luciferase reporter, luminescence/redox ratio | activity score, % at 18.7 µM | 350,000 compounds, 0.13% hits | AID 602363;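 active = replicate mean at a twofold rise or more, about +100% in these data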;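 note: firefly luciferase made from a UUG start codon reports start codon fidelity; reporter light over untreated wells divided by growth signal over untreated wells; some hits fall short of that in this replicate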
FGF22 binding-2: FGF22 (human) binding in thermal shift; shares compounds with FGF22 binding-1; recombinant FGF22 thermal shift, SYPRO orange fluorescence; thermal shift activity, °C (ΔTm) at 38 µM; 2% of 1,000 active; AID 720646;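 active = fitted rise in melting shift crosses a set limit at or below the top valid dose tested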
FGF22 TSA: binds human FGF22 shifting its melting temperature; shares compounds with FGF22 binding-1; Thermal shift assay, SYPRO orange, melting temperature shift; 50 tested, under 10 active; Tm shift (activity), % at 38 µM;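 active = compounds whose fitted dose curve of melting temperature shift rises past a set threshold within the tested doses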
TSA no protein: shows thermal shift signal without protein, FGF22 counter-screen; shares compounds with FGF22 binding-1; compound-only SYPRO orange thermal shift counter-screen, no protein; AC50, µM (top dose mostly 38 µM); 2% of 1,000 active;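 active = rising signal whose fitted curve reaches the 0.54 level within the top valid dose, showing a melting point, actives reach about 13 µM in these data; inactive = the rest, including activity in the opposite direction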; also: value is where the raw curve crosses a fixed level and not half-maximal
Starred values were filed as active, the others as inactive; i = inactive; x = not tested or not shown; [ ] = another dose, or the depositor's remark. Compounds with a hit are over-represented: about 1.9% of the library has one in this group of screens.

Start of the data: the first five compounds, ahead of the listing:
SMILES	PglD inh	ARNT TACC3 PPI	PDI inh	ERp5 block	FGF22 binding-1	Yeast UUG start	FGF22 binding-2	TSA no protein	others
CCC(=O)N1CC2(C1)CN(C(=O)c1ccccn1)[C@@H](CO)c1c2c2ccc(OC)cc2n1C	x	x	x	-6.6	-0.1	x	x	x
O=[N+]([O-])c1ccc(S(=O)(=O)Nc2nnc(C(F)(F)F)s2)cc1	-7.4	-7.3	-9.2	4.0	1.5*	-14.2	-0.06	i
COc1ccc(OCCNC(=O)C(Cc2c[nH]c3ccccc23)NC(C)=O)cc1 (centres undefined)	x	-3.4	7.5	-2.3	-0.2	x	x	x
CC(=O)NC(Cc1c[nH]c2ccccc12)C(=O)NCCc1ccccn1 (centres undefined)	-1.1	-3.2	3.2	0.6	1.6*	-21.2	0.195	i
O=[N+]([O-])c1cccc(S(=O)(=O)Nc2cccc(-c3ccc(N4CCOCC4)nn3)c2)c1	4.7	x	0.5	-4.6	-0.1	-6.9	x	x

This part in full, from the first entry:
SMILES	PglD inh	ARNT TACC3 PPI	PDI inh	ERp5 block	FGF22 binding-1	Yeast UUG start	FGF22 binding-2	TSA no protein	others
CCC(=O)N1CC2(C1)CN(C(=O)c1ccccn1)[C@@H](CO)c1c2c2ccc(OC)cc2n1C	x	x	x	-6.6	-0.1	x	x	x
O=[N+]([O-])c1ccc(S(=O)(=O)Nc2nnc(C(F)(F)F)s2)cc1	-7.4	-7.3	-9.2	4.0	1.5*	-14.2	-0.06	i
COc1ccc(OCCNC(=O)C(Cc2c[nH]c3ccccc23)NC(C)=O)cc1 (centres undefined)	x	-3.4	7.5	-2.3	-0.2	x	x	x
CC(=O)NC(Cc1c[nH]c2ccccc12)C(=O)NCCc1ccccn1 (centres undefined)	-1.1	-3.2	3.2	0.6	1.6*	-21.2	0.195	i
O=[N+]([O-])c1cccc(S(=O)(=O)Nc2cccc(-c3ccc(N4CCOCC4)nn3)c2)c1	4.7	x	0.5	-4.6	-0.1	-6.9	x	x
O=[N+]([O-])c1cccc(S(=O)(=O)Nc2ccc(-c3ccc(N4CCOCC4)nn3)cc2)c1	9.6	8.6	6.8	1.3	2.5*	8.6	-0.022	i
O=[N+]([O-])c1cccc(S(=O)(=O)Nc2ccc(-c3ccc(N4CCCC4)nn3)cc2)c1	-2.7	x	0.7	4.3	1.6*	-0.4	-0.071	i
O=[N+]([O-])c1cccc(S(=O)(=O)Nc2cccc(-c3ccc(N4CCCC4)nn3)c2)c1	-1.7	3.6	0.3	2.1	-0.2	12.7	x	x
O=[N+]([O-])c1cccc(S(=O)(=O)Nc2ccc(S(=O)(=O)Nc3nccs3)cc2)c1	-1.9	0.0	9.8	1.7	1.6*	-8.8	0.084	i
O=C(Nc1ccc(O)cc1)c1cccc(Oc2ccc([N+](=O)[O-])cc2)c1	x	2.9	-1.5	0.7	3.1*	x	0.156	i
CC(C)CC#Cc1ccc2c(c1)O[C@@H](CN(C)C(=O)C1CCC1)[C@H](C)CN([C@H](C)CO)S2(=O)=O	-0.6	5.2	x	0.5	-0.4	27.3	x	x
COC(=O)[C@]1(Cc2ccccc2)N[C@H](CN(C)S(=O)(=O)c2ccc(C)cc2)[C@@H]2C(=O)N(Cc3ccccc3)C(=O)[C@@H]21	-0.9	-2.7	-10.1	2.2	1.4*	-8.2	-0.132	i
C[C@@H]1CN([C@@H](C)CO)C(=O)c2cc(NC(=O)Nc3ccc4c(c3)OCO4)ccc2O[C@H]1CN(C)Cc1ccc(-c2ccccc2)cc1	0.9	2.3	x	0.7	0.0	-8.6	x	x
CO[C@@H]1CN(C)C(=O)c2ccc(NC(=O)c3cccc(F)c3)cc2OC[C@H](C)N(C)C[C@H]1C	1.2	-7.8	x	-1.5	0.1	10.4	x	x
NNC(=O)CN1C(=O)C2(OCCO2)c2ccccc21	3.4	x	-0.9	-2.3	29.6*	-8.8	0.05	i
COc1ccc2c3c([nH]c2c1)[C@H](CO)N(C(=O)Nc1ccc(F)cc1)CC31CCN(S(=O)(=O)c2cccs2)CC1	x	x	x	4.2	16.2*	x	0.032[42 µM]	i
CCCNC(=O)N1CC2(C1)[C@@H](c1ccccc1)[C@@H](CO)N2C(=O)c1cccnc1	x	x	x	-1.2	-0.1	x	x	x
CCOc1ccc(C(=O)CCC(=O)Nc2ccc(C)cn2)cc1	-3.3	12.9	-3.4	3.6	13.8*	-0.7	0.224	i
CO[C@@H]1CN(C)C(=O)c2ccc(NC(=O)NC(C)C)cc2OC[C@H](C)N(Cc2ccccn2)C[C@@H]1C	1.8	7.1	x	0.9	-0.2	x	x	x
COc1ccc(N(C)S(=O)(=O)c2cccc(C(=O)Nc3ccc(N4CCOCC4)cc3)c2)cc1	1.7	3.2	-0.8	1.0	2.3*	7.5	0.116	i
C[C@H]1CN([C@@H](C)CO)S(=O)(=O)c2ccc(C#Cc3ccccc3)cc2O[C@H]1CN(C)CC1CC1	1.0	6.4	x	1.6	0.0	17.8	x	x
C[C@@H]1CN([C@@H](C)CO)S(=O)(=O)c2ccc(-c3ccccc3)cc2O[C@@H]1CN(C)C(=O)Nc1ccccc1F	-1.1	1.9	x	2.1	0.0	-18.9	x	x
C[C@H]1CN([C@@H](C)CO)S(=O)(=O)c2ccc(/C=C/c3ccccc3)cc2O[C@@H]1CN(C)Cc1ccc(C(=O)O)cc1	-1.2	6.7	x	7.3	1.6*	7.7	0.062[42 µM]	i
COc1cccc(NC(=O)N(C)C[C@H]2Oc3cc(-c4ccccc4F)ccc3S(=O)(=O)N([C@H](C)CO)C[C@H]2C)c1	1.9	0.8	x	-2.7	2.3*	-6.2	0.137	11.5µM*
C[C@@H]1CN([C@@H](C)CO)S(=O)(=O)c2ccc(/C=C/c3ccccc3)cc2O[C@H]1CN(C)Cc1ccc(C(=O)O)cc1	1.2	8.3	x	3.6	1.1	8.9	x	x
COc1cccc(NC(=O)N(C)C[C@@H]2Oc3cc(-c4ccccc4F)ccc3S(=O)(=O)N([C@H](C)CO)C[C@H]2C)c1	-2.9	6.2	x	-4.2	-0.3	-1.3	x	x
COc1cccc(NC(=O)N(C)C[C@@H]2Oc3cc(-c4ccccc4F)ccc3S(=O)(=O)N([C@@H](C)CO)C[C@@H]2C)c1	-1.0	2.2	x	1.0	2.1*	2.2	-0.219	i
C[C@@H]1CN([C@H](C)CO)S(=O)(=O)c2ccc(-c3ccc(F)cc3)cc2O[C@@H]1CN(C)C(=O)Nc1ccccc1F	-3.6	-21.1	x	1.6	1.8*	13.5	0.119	i
CN(C)CC#Cc1ccc([C@H]2[C@@H](CO)N3CCCCN(CC4CCOCC4)C[C@H]23)cc1	6.4	2.7	x	-0.1	-0.4	35.3	x	x
CO[C@H]1CN(C)C(=O)c2cc(NC(=O)c3cnccn3)ccc2OC[C@@H](C)N(CC2CC2)C[C@H]1C	x	x	x	x	0.0	x	x	x
C/C=C/c1ccc2c(c1)O[C@@H](CN(C)C(=O)Nc1ccc(F)cc1)[C@@H](C)CN([C@H](C)CO)S2(=O)=O	-2.4	1.3	x	-0.8	x	2.9	-0.092	i
C[C@@H](NC(=O)[C@H]1[C@H](CO)[C@H]2Cn3c(cccc3=O)[C@H]2N1CC1CCCCC1)c1ccccc1	x	x	x	-0.6	x	x	x	x
Cc1[nH]c2ccc(C(=O)OCC(=O)Nc3cccc(S(N)(=O)=O)c3)cc2c1C	-1.6	6.5	2.9	1.4	1.6*	-2.7	x	i	FGF22 TSA=-0.4
C[C@@H]1CN([C@H](C)CO)C(=O)c2cc(NC(=O)Nc3ccc(C(F)(F)F)cc3)ccc2O[C@@H](C)CCCCO[C@@H]1CN(C)C(=O)CCCN(C)C	-3.2	-1.8	x	x	-0.2	32.4	x	x
O=c1c2ccccc2[nH]c2ccc(F)cc12	x	-6.9	-4.6	-3.6	1.5*	x	-0.051	i

Screens: PubChem BioAssay, Broad Institute
